Data taken from ChEMBL document CHEMBL4382216, “Asymmetric synthesis and biological evaluation of imidazole- and oxazole-containing synthetic lipoxin A4 mimetics (sLXms)” (Eur J Med Chem, 2019).
The source made the active and inactive calls. No cut-off for these calls is given here.

Tests used:
[1] = molecular target: T1, N-formyl peptide receptor 2 (Homo sapiens) (UniProt P25090); experiment: Agonist activity at ALX/FPR2 in human THP1 cells harboring NF-kB-Luc assessed as inhibition of LPS-induced NFkB signalling activation by measuring NF-kB activation level at 10^-12 M pretreated for 30 mins followed by LPS stimulation for 24 hrs by luciferase reporter gene assay; type: cell-based; set-up: scale not given: the % may be the effect or the level left
T1 sequence (whole entry): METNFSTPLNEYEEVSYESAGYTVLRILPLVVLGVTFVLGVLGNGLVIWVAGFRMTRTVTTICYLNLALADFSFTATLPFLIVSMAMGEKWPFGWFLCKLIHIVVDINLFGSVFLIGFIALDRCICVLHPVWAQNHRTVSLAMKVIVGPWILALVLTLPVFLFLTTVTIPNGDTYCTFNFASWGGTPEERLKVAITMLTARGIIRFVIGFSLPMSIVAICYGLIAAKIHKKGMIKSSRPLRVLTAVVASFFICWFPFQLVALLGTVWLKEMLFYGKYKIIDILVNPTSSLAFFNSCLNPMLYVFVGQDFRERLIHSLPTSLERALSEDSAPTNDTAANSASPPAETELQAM

[2] = molecular target: T1, N-formyl peptide receptor 2 (Homo sapiens); experiment: Agonist activity at ALX/FPR2 in human THP1 cells harboring NF-kB-Luc assessed as inhibition of LPS-induced NFkB signalling activation by measuring NF-kB activation level at 10^-11 M pretreated for 30 mins followed by LPS stimulation for 24 hrs by luciferase reporter gene assay; type: cell-based; set-up: scale not given: the % may be the effect or the level left
[3] = molecular target: T1, N-formyl peptide receptor 2 (Homo sapiens); experiment: Agonist activity at ALX/FPR2 in human THP1 cells harboring NF-kB-Luc assessed as inhibition of LPS-induced NFkB signalling activation by measuring NF-kB activation level at 10^-10 M pretreated for 30 mins followed by LPS stimulation for 24 hrs by luciferase reporter gene assay; type: cell-based; set-up: scale not given: the % may be the effect or the level left
[4] = molecular target: T1, N-formyl peptide receptor 2 (Homo sapiens); experiment: Agonist activity at ALX/FPR2 in human THP1 cells harboring NF-kB-Luc assessed as inhibition of LPS-induced NFkB signalling activation by measuring NF-kB activation level at 10^-9 M pretreated for 30 mins followed by LPS stimulation for 24 hrs by luciferase reporter gene assay; type: cell-based; set-up: scale not given: the % may be the effect or the level left
[5] = molecular target: T1, N-formyl peptide receptor 2 (Homo sapiens); experiment: Agonist activity at ALX/FPR2 in human THP1 cells harboring NF-kB-Luc assessed as inhibition of LPS-induced NFkB signalling activation by measuring NF-kB activation level at 10^-8 M pretreated for 30 mins followed by LPS stimulation for 24 hrs by luciferase reporter gene assay; type: cell-based; set-up: scale not given: the % may be the effect or the level left
[6] = molecular target: T1, N-formyl peptide receptor 2 (Homo sapiens); experiment: Agonist activity at ALX/FPR2 in human THP1 cells harboring NF-kB-Luc assessed as inhibition of LPS-induced NFkB signalling activation by measuring NF-kB activation level at 10^-7 M pretreated for 30 mins followed by LPS stimulation for 24 hrs by luciferase reporter gene assay; type: cell-based; set-up: scale not given: the % may be the effect or the level left
[7] = molecular target: T1, N-formyl peptide receptor 2 (Homo sapiens); experiment: Agonist activity at ALX/FPR2 in human THP1 cells harboring NF-kB-Luc assessed as inhibition of LPS-induced NFkB signalling activation by measuring NF-kB activation level at 10^-6 M pretreated for 30 mins followed by LPS stimulation for 24 hrs by luciferase reporter gene assay; type: cell-based; set-up: scale not given: the % may be the effect or the level left
[8] = molecular target: T1, N-formyl peptide receptor 2 (Homo sapiens); experiment: Agonist activity at ALX/FPR2 in human THP1 cells harboring NF-kB-Luc assessed as inhibition of LPS-induced NFkB signalling activation by measuring IL-1beta secretion at 10^-11 M pretreated for 30 mins followed by LPS stimulation for 24 hrs by electrochemiluminescence assay; type: cell-based; set-up: scale not given: the % may be the effect or the level left
[9] = molecular target: T1, N-formyl peptide receptor 2 (Homo sapiens); experiment: Agonist activity at ALX/FPR2 in human THP1 cells harboring NF-kB-Luc assessed as inhibition of LPS-induced NFkB signalling activation by measuring IL-1beta secretion at 10^-9 M pretreated for 30 mins followed by LPS stimulation for 24 hrs by electrochemiluminescence assay; type: cell-based; set-up: scale not given: the % may be the effect or the level left
[10] = molecular target: T1, N-formyl peptide receptor 2 (Homo sapiens); experiment: Agonist activity at ALX/FPR2 in human THP1 cells harboring NF-kB-Luc assessed as inhibition of LPS-induced NFkB signalling activation by measuring IL-1beta secretion at 10^-7 M pretreated for 30 mins followed by LPS stimulation for 24 hrs by electrochemiluminescence assay; type: cell-based; set-up: scale not given: the % may be the effect or the level left
[11] = molecular target: T1, N-formyl peptide receptor 2 (Homo sapiens); experiment: Agonist activity at ALX/FPR2 in human THP1 cells harboring NF-kB-Luc assessed as inhibition of LPS-induced NFkB signalling activation by measuring IL-6 secretion at 10^-11 M pretreated for 30 mins followed by LPS stimulation for 24 hrs by electrochemiluminescence assay; type: cell-based; set-up: scale not given: the % may be the effect or the level left
[12] = molecular target: T1, N-formyl peptide receptor 2 (Homo sapiens); experiment: Agonist activity at ALX/FPR2 in human THP1 cells harboring NF-kB-Luc assessed as inhibition of LPS-induced NFkB signalling activation by measuring IL-6 secretion at 10^-9 M pretreated for 30 mins followed by LPS stimulation for 24 hrs by electrochemiluminescence assay; type: cell-based; set-up: scale not given: the % may be the effect or the level left
[13] = molecular target: T1, N-formyl peptide receptor 2 (Homo sapiens); experiment: Agonist activity at ALX/FPR2 in human THP1 cells harboring NF-kB-Luc assessed as inhibition of LPS-induced NFkB signalling activation by measuring IL-6 secretion at 10^-7 M pretreated for 30 mins followed by LPS stimulation for 24 hrs by electrochemiluminescence assay; type: cell-based; set-up: scale not given: the % may be the effect or the level left
[14] = molecular target: T1, N-formyl peptide receptor 2 (Homo sapiens); experiment: Agonist activity at ALX/FPR2 in human THP1 cells harboring NF-kB-Luc assessed as inhibition of LPS-induced NFkB signalling activation by measuring IL-12p70 secretion at 10^-11 M pretreated for 30 mins followed by LPS stimulation for 24 hrs by electrochemiluminescence assay; type: cell-based; set-up: scale not given: the % may be the effect or the level left
[15] = molecular target: T1, N-formyl peptide receptor 2 (Homo sapiens); experiment: Agonist activity at ALX/FPR2 in human THP1 cells harboring NF-kB-Luc assessed as inhibition of LPS-induced NFkB signalling activation by measuring IL-12p70 secretion at 10^-9 M pretreated for 30 mins followed by LPS stimulation for 24 hrs by electrochemiluminescence assay; type: cell-based; set-up: scale not given: the % may be the effect or the level left
[16] = molecular target: T1, N-formyl peptide receptor 2 (Homo sapiens); experiment: Agonist activity at ALX/FPR2 in human THP1 cells harboring NF-kB-Luc assessed as inhibition of LPS-induced NFkB signalling activation by measuring IL-12p70 secretion at 10^-7 M pretreated for 30 mins followed by LPS stimulation for 24 hrs by electrochemiluminescence assay; type: cell-based; set-up: scale not given: the % may be the effect or the level left
[17] = molecular target: T1, N-formyl peptide receptor 2 (Homo sapiens); experiment: Agonist activity at ALX/FPR2 in human THP1 cells harboring NF-kB-Luc assessed as inhibition of LPS-induced NFkB signalling activation by measuring IFNgamma secretion at 10^-11 M pretreated for 30 mins followed by LPS stimulation for 24 hrs by electrochemiluminescence assay; type: cell-based; set-up: scale not given: the % may be the effect or the level left
[18] = molecular target: T1, N-formyl peptide receptor 2 (Homo sapiens); experiment: Agonist activity at ALX/FPR2 in human THP1 cells harboring NF-kB-Luc assessed as inhibition of LPS-induced NFkB signalling activation by measuring IFNgamma secretion at 10^-9 M pretreated for 30 mins followed by LPS stimulation for 24 hrs by electrochemiluminescence assay; type: cell-based; set-up: scale not given: the % may be the effect or the level left
[19] = molecular target: T1, N-formyl peptide receptor 2 (Homo sapiens); experiment: Agonist activity at ALX/FPR2 in human THP1 cells harboring NF-kB-Luc assessed as inhibition of LPS-induced NFkB signalling activation by measuring IFNgamma secretion at 10^-7 M pretreated for 30 mins followed by LPS stimulation for 24 hrs by electrochemiluminescence assay; type: cell-based; set-up: scale not given: the % may be the effect or the level left
[20] = molecular target: T1, N-formyl peptide receptor 2 (Homo sapiens); experiment: Agonist activity at ALX/FPR2 in human THP1 cells harboring NF-kB-Luc assessed as inhibition of LPS-induced NFkB signalling activation by measuring TNFalpha secretion at 10^-11 M pretreated for 30 mins followed by LPS stimulation for 24 hrs by electrochemiluminescence assay; type: cell-based; set-up: scale not given: the % may be the effect or the level left
[21] = molecular target: T1, N-formyl peptide receptor 2 (Homo sapiens); experiment: Agonist activity at ALX/FPR2 in human THP1 cells harboring NF-kB-Luc assessed as inhibition of LPS-induced NFkB signalling activation by measuring TNFalpha secretion at 10^-9 M pretreated for 30 mins followed by LPS stimulation for 24 hrs by electrochemiluminescence assay; type: cell-based; set-up: scale not given: the % may be the effect or the level left
[22] = molecular target: T1, N-formyl peptide receptor 2 (Homo sapiens); experiment: Agonist activity at ALX/FPR2 in human THP1 cells harboring NF-kB-Luc assessed as inhibition of LPS-induced NFkB signalling activation by measuring TNFalpha secretion at 10^-7 M pretreated for 30 mins followed by LPS stimulation for 24 hrs by electrochemiluminescence assay; type: cell-based; set-up: scale not given: the % may be the effect or the level left
[23] = molecular target: T1, N-formyl peptide receptor 2 (Homo sapiens); experiment: Agonist activity at ALX/FPR2 (unknown origin) expressed in HEK293 cells co-expressing Galphaq assessed as induction of intracellular calcium accumulation at 0.01 nM to 100 nM by Fluo-4 dye based fluorescence spectrophotometric assay; type: functional, cell-based
Homo sapiens = species on record: Homo sapiens; experiment: Activation of Luc-fused NFkB (unknown origin) expressed in non-stimulated human THP1 cells assessed as relative luminescence unit at 10^-8 M after 24 hrs by luciferase reporter gene assay (reference value: 100%); type: cell-based

SMILES	Activity [1]	Activity [2]	Activity [3]	Activity [4]	Activity [5]	Activity [6]	Activity [7]	Activity [8]	Activity [9]	Activity [10]	Activity [11]	Activity [12]	Activity [13]	Activity [14]	Activity [15]	Activity [16]	Activity [17]	Activity [18]	Activity [19]	Activity [20]	further results
CCCCC[C@@H](O)c1nc(-c2ccccc2)oc1/C=C/[C@@H](O)[C@@H](O)CCCC(=O)OC(C)C	92%	95.3%	100%	99%	89.7%	91.5%	85.9%	275%	284%	89.7%	107%	115%	84.8%	76.4%	231%	126%	222%	315%	156%	81.2%	Activity [21]: 90.1%; Activity [22]: 67.9%
CCCCC[C@@H](O)c1c(/C=C/[C@@H](O)[C@@H](O)CCCC(=O)OC)nc(C)n1C	56.2%	58.7%	86.9%	97.7%	102%	92%	94.2%	117%	95%	98.1%	95.4%	93.1%	87.9%	94.3%	80.7%	73.1%	87.7%	86.1%	63.3%	106%	Activity [21]: 91.2%; Activity [22]: 82.1%; Activity [23]: Active
CCCCC[C@H](O)c1nc(-c2ccccc2)oc1/C=C/[C@@H](O)[C@@H](O)CCCC(=O)OC(C)C	75.8%	75.8%	77.2%	79.9%	90.1%	81%	83.7%	98.4%	75.7%	53.6%	74.8%	75%	82.3%	79.5%	63.5%	66.6%	72.3%	42.6%	50.1%	81.2%	Activity [21]: 70.7%; Activity [22]: 70.9%; Activity [23]: Active
CCC[C@H](O)c1c(/C=C/[C@@H](O)[C@@H](O)CCCC(=O)OC)nc(C)n1C	81.8%	80.4%	81.8%	78.6%	75.9%	78.1%	90.2%	117%	105%	61.7%	123%	120%	110%	114%	87.4%	90.2%	50.9%	50.4%	54.4%	103%	Activity [21]: 108%; Activity [22]: 91.9%
CCCCC[C@H](O)c1c(/C=C/[C@@H](O)[C@@H](O)CCCC(=O)OC)nc(C)n1C	92.7%	82.5%	83%	88.6%	90.9%	80.5%	76.1%	96.4%	69.2%	35.1%	92.6%	70.9%	74.1%	60.2%	45%	68.3%	56%	44.2%	51.1%	83%	Activity (Homo sapiens): 4.5%; Activity [21]: 63.7%; Activity [22]: 57.1%

Now from value to compound, other results behind:

Activity [1]	Activity [2]	Activity [3]	Activity [4]	Activity [5]	Activity [6]	Activity [7]	Activity [8]	Activity [9]	Activity [10]	Activity [11]	Activity [12]	Activity [13]	Activity [14]	Activity [15]	Activity [16]	Activity [17]	Activity [18]	Activity [19]	Activity [20]	SMILES	further results
96.4%	83.3%	81.9%	80.9%	75.2%	78.5%	88.7%	109%	121%	2.6%	106%	107%	92.5%	121%	62.8%	79.8%	172%	79.6%	109%	136%	COC(=O)CCC[C@H](O)[C@H](O)/C=C/c1nc(C)n(C)c1[C@@H](C)O	Activity [21]: 112%; Activity [22]: 96.1%
85.7%	86.2%	85.8%	87.1%	84.8%	82.4%	90.1%	120%	114%	61.7%	128%	120%	72.7%	89.5%	75.1%	55.8%	68%	69.3%	55.4%	116%	CCC[C@@H](O)c1c(/C=C/[C@@H](O)[C@@H](O)CCCC(=O)OC)nc(C)n1C	Activity (Homo sapiens): 1.1%; Activity [21]: 108%; Activity [22]: 79.7%
